Results on one compound are retold here after patent US7390890B2, “Inhibitors of nucleoside metabolism” (Albert Einstein College of Medicine of Yeshiva University, priority 1997, dated 2008).

Amino acid sequences for entries named in this document (tags omitted).
UniProt Q27546, whole entry: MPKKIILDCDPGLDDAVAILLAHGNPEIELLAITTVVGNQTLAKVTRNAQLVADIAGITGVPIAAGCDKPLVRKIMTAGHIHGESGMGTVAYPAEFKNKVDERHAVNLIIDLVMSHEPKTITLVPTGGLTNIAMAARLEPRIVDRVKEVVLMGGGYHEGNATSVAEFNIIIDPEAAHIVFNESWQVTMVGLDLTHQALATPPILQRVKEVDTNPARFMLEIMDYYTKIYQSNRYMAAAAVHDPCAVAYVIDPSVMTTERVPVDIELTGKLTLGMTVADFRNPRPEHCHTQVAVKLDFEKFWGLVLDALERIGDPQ
UniProt P55859, whole entry: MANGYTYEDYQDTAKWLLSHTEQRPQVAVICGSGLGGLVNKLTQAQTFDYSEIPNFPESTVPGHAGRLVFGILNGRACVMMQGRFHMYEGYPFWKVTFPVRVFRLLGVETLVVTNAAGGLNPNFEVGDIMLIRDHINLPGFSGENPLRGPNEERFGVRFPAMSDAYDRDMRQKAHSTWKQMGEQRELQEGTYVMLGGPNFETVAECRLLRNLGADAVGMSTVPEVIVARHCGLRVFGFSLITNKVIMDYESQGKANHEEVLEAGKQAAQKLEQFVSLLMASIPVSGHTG

The target in assay [1] is nucleoside hydrolase from Crithidia fasciculata (Crithidia fasciculata, UniProt Q27546). Description: Protozoan nucleoside hydrolase inhibition, p-nitrophenyl riboside substrate. The format is biochemical. The conditions noted are these: read-out: Ki Values; nucleoside hydrolase C. fasciculata; Ia average of multiple determinations, Ib, Ic, Va single determination; tested form: HCl.

The target of assay [2] is calf spleen (bovine) purine nucleoside phosphorylase (Bos taurus, UniProt P55859). The conditions noted are these: tested form: HCl.

Take `Nc1nc2c(C3NC(CO)C(O)C3O)c[nH]c2c(=O)[nH]1` (centres unmarked): the Ki (in general, the equilibrium dissociation constant of an inhibitor or competing ligand from its target) was found to be 7 nM in assay [1] and 0.03 nM in assay [2].
